Values quoted from earlier work in patent US20070092565A1, “Gastric retention drug delivery system” (PHARMASCIENCE INC., priority 2005, published 2007).
Where two headings read alike, the source gives them in different places.

1-(aminomethyl) cyclohexane acetic acid [Gabapentin]
oral bioavailability (dose 900 mg/day given in 3 divided doses): 60% | oral bioavailability (dose 2400 mg/day given in 3 divided doses): 34%
